Experimental data from US20100256109A1, “Azetidines As EP2 Antagonists” (priority 2007, published 2010).

Amino acid sequences for entries named in this document (tags omitted).
UniProt P43116, whole entry: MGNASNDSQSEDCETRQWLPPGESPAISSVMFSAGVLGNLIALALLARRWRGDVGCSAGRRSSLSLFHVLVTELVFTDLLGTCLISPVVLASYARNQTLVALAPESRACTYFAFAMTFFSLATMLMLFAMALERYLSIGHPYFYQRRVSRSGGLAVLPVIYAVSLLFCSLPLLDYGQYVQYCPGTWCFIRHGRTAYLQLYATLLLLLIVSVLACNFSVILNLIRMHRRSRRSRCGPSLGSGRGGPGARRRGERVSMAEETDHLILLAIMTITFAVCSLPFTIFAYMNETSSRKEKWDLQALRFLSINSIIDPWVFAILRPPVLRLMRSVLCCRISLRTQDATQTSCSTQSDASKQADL

Biological target: recombinant human EP-2 receptor (Homo sapiens, UniProt P43116)
Assay: In vitro antagonist potency against recombinant human prostaglandin E2 (EP-2) receptor in CHO cells (cAMP)
Details: read-out: EP2 Ki; CHO cells expressing recombinant human EP-2 receptor, stimulated with PGE2 5 nM; cAMP readout; Ki from IC50 by Cheng-Prusoff
Protocol: 1.0 Measurement of In Vitro Antagonist Potency (IC50) of Compounds Against Recombinant Human Prostaglandin E2 Receptor in CHO Cells.
The prostaglandin E2 (EP-2) receptor is Gs coupled and agonism of the receptor by PGE2 results in activation of intracellular adenylate cyclase enzymes that synthesise the second messenger signalling molecule, adenosine 3′,5′-cyclic monophosphate (cAMP). CHO cells expressing the recombinant human EP-2 receptor are stimulated with PGE2 (5 nM) equivalent to approximately […] values to give the maximal cAMP signal. Decreases in cAMP levels following treatment of stimulated recombinant EP-2 cells with potential antagonist compounds were measured and potency (IC50) calculated as follows.
A Chinese hamster ovary (CHO) cell line stably transfected with full length cDNA encoding human Prostaglandin E2 was established using standard molecular biology methods. Test compounds were dissolved in dimethyl sulphoxide (DMSO) at 4 mM. 11 point half log unit increment dilution series of test compound were prepared in DMSO then diluted 1 in 40 in a buffer comprised of phosphate buffered saline (PBS) and 0.05% pluronic F-127 surfactant. Freshly cultured cells at 80-90% confluence were harvested and re-suspended in 90% growth media/10% DMSO. The cells were frozen using a planar freezer and stored in frozen aliquots in cryovials in liquid nitrogen until the day of the experiment. A vial of cells was defrosted in a 37° C. water bath for 2 min, then transferred to 10 ml of Dulbecco's Modified Eagle's Medium (DMEM). The cells were then centrifuged for 5 min at 1000 g and the pellet re-suspended at 1,000,000 cells/ml in DMEM. 5,000 cells (5 ul) were added to 5 ul of the compound dilution series in a 384 well assay plate and pre-incubated for 30 min at 37° C. 5 ul of agonist (15 nM PGE2 in PBS to give 5 nM FAC) was added and plates further incubated for 90 min at 37° C. The relative cAMP concentration in each well was then measured using a β-galactosidase enzyme fragment complementation method purchased in kit form as the Discoverx cAMP II kit from GE Healthcare, UK. […] Sigmoidal curves were fitted to plots of log10 inhibitor concentration vs. percent effect. IC50 estimates were determined as the concentration of test compound giving an effect half way between the bottom and top asymptotes of the sigmoidal dose response curve. Each experiment included an IC50 determination for the literature compound as a standard to track assay consistency and allow fair comparison between values obtained in different experiments. The EC50 of PGE2 is used in combination with the ligand concentration in the assay to determine Ki values for antagonist dose responses using the Cheng-Prusoff equation. […]

Work on `CS(=O)(=O)c1ccc(-c2nnn(CC3(C(=O)O)CN(C(=O)c4ccc(F)cc4)C3)n2)cc1` yielded a Ki of 105 nM.

`O=C(c1ccc(Cl)cc1)N1CC(Cn2nnc(-c3ccc(F)c(F)c3)n2)(C(=O)O)C1` showed a Ki of 24.5 nM.

Compound `COc1ccc(-c2nnn(CC3(C(=O)O)CN(C(=O)c4ccc(F)cc4)C3)n2)cc1OC` has a Ki of 85.1 nM.

For `O=C(c1ccc(F)cc1)N1CC(Cn2nnc(-c3cccc(F)c3)n2)(C(=O)O)C1`, the Ki was 42.1 nM.
